Measured values from publication PMC13626732.

Target: zebrafish Arpin (recombinantly expressed, SEC and AUC) (zebrafish) (UniProt Q1LWJ6)
Assay: SEC + AUC; recombinant Arpin in solution; monomer to dimer, reversible interconversion

A stoichiometry N of 2 was found for “zebrafish Arpin (recombinantly expressed, SEC and AUC) (from UniProt Q1LWJ6 1-226) (natural protein)” in this work.
